The data set can be described thus: label from the status in PepcDB records.

Consider “MPVKRSLKLDGLLEENSFDPSKITRKKSVITYSPTTGTCQMSLFASPTSSEEQKHRNGLSNEKRKKLNHPSLTESKESTTKDNDEFMMLLSKVEKLSEEIMEIMQNLSSIQALEGSRELENLIGISCASHFLKREMQKTKELMTKVNKQKLFEKSTGLPHKASRHLDSYEFLKAILN”, for which the protein production result is reported as “failed”. As for “SEEQPQMQDADEPADSGGEGRAGGPPQVAGAQAACSEDRMTLLLRLRAQTKQQLLEYKSMVDASEEKTPEQIMQEKQIEAKIEDLENEIEEVKVAFEIKKLALDRMRLSTALKKNLEKISRQSSVLMDNMKHLLELNKLIMKSQQESWDLEEKLLDIRKKRLQLKQASESKLLEIQTEKNKQKIDLDSMENSERIKIIRQNLQMEIKITTVIQHVFQNLILGSKVNWAEDPALKEIVLQLEKNVDMM”, the protein production entry is listed as “failed”.
